The values that follow come from US11919886B2, “4,9-dioxo-4,9-dihydronaphtho[2,3-B]furan-3-carboxamide derivatives and uses thereof for treating proliferative diseases and infectious diseases” (Academia Sinica, priority 2016, dated 2024).

Broadly, the IC50 is the concentration needed to halve the response being measured.

This assay relates to gefitinib-sensitive and gefitinib-resistant lung cancer cells. In words: SRB cytotoxicity assay, lung cancer cell lines overall. For orientation: In SRB staining, fixed cells bind dye roughly in proportion to their protein.

For `Cc1oc2c(c1C(=O)NCCCn1ccnc1)C(=O)c1ccccc1C2=O` [Compound 1, N-(3-(1H-Imidazol-1-yl)propyl)-2-methyl-4,9-dioxo-4,9-dihydronaphtho [2,3-b]furan-3-carboxamide], where the note is “Homo sapiens, 72 h, read-out: IC50, inhibition of growth”, the IC50 is below 300 nM. Further, where the note is “cancer cells vs normal cells”, the “higher potency for cancer cells than normal cells” value is recorded as at least 3 fold.
